# scFv variants of Ab-95 (light chain) against a SARS-CoV-2 spike peptide

Reference: Engelhart et al. 2022, doi:10.1038/s41597-022-01779-4. File: FLAb, binding data.

Antigen: PDVDLGDISGINAS, a 14-residue peptide of the SARS-CoV-2 spike HR2 region.

Ab-95 is the parent antibody, in scFv form: VH, then a 15-residue (Gly4Ser)3 linker, then VL. The heavy chain is unchanged in all variants.
VH: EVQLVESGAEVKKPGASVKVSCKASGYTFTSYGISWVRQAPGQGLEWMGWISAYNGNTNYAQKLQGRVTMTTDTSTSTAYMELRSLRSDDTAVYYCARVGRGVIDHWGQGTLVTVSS
VL: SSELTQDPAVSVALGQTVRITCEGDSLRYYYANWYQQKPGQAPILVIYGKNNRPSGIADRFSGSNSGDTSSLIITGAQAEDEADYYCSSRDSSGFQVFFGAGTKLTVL

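In library AAYL52, one, two or three CDR residues were substituted; doubles and triples were drawn at random. AlphaSeq pools MATa yeast showing the antibodies with MATalpha yeast showing the peptide. Binding brings cells together so that they mate, and sequencing counts the barcode pairs among the diploids. Scores were corrected for input abundance and mapped to Kd with protein pairs of known affinity run in the same pool. Mating was done three times.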

Variants are written as CDR1, CDR2 and CDR3 of the light chain (limits as in the source). Parent: EGDSLRYYYAN, GKNNRPS, SSRDSSGFQVF.
Every variant below is changed at G49 of the VL (sequential numbering).
Numbers give log10(Kd / nM), so 0 is 1 nM and 3 is 1 µM. Smaller is tighter.
The mean shown is taken over the replicates in which the pair was detected.
"no signal" marks a missing value. The strain was present, yet no cells mated with the target were sequenced in any replicate, which points to weak or no binding.
Three control strains display no target. For library AAYL52, 28% of the pairings with them gave a signal, with a median of 3.91 and one signal in twenty below 2.90, so weak values seen in few replicates may be background. Also given: how often the same scFv was detected with the empty control strains.
Parent in this assay: reference entry 2.31, copy in this library 2.25.

| CDR-L1 | CDR-L2 | CDR-L3 | mean, log10 nM | replicates with signal | empty controls |
|---|---|---|---|---|---|
| EGDSLRYYYAN | NKNNRVS | SSRDSSGNQVF | 3.72 | 3/3 | 0/9 |
| EGDSLRYYYAN | DKNNRPK | SSRDSSFFQVF | 3.22 | 3/3 | 0/9 |
| EGSSLRYYYAN | VINNRPS | SSRDSSGFQVF | no signal | 0/3 | 0/9 |
| EGCSLRYYYAN | WANNRPS | SSRDSSGFQVF | 4.52 | 1/3 | 2/9 |
| EGDSLRYYYAN | WKNWRPS | SARDSSGFQVF | no signal | 0/3 | 2/9 |
| EGDSLRYGYAN | QKNNRPS | SSRDSSGFQLF | 1.20 | 3/3 | 4/9 |
| EGDSLRYPYAN | IKNNRPS | SSDDSSGFQVF | 4.31 | 1/3 | 0/9 |
| EGDSLRYYYAN | PKNNRPS | ASRDSSYFQVF | 3.85 | 1/3 | 2/9 |
| SGDSLRYYYAN | IKNNRPS | SSRDSSGFQYF | 4.62 | 1/3 | 2/9 |
| EGDSLRYYYAN | KKNNRPS | SMRDSLGFQVF | no signal | 0/3 | 4/9 |
| EGDSLIYYYAN | AKNNRPS | SSRDSSGFGVF | 3.48 | 1/3 | 3/9 |
| EGDSLRYYYAN | HKNYRPS | SSRDSVGFQVF | 3.83 | 1/3 | 5/9 |
| EGDSLRYYYAN | MKLNRPS | SSRDSSGFQVF | no signal | 0/3 | 0/9 |
| EGDSLRYYMAN | KKNNRPS | SSYDSSGFQVF | 4.57 | 1/3 | 1/9 |
| EGDDLRYYYAN | IKNNRPS | SSRDSSGFQVF | 4.03 | 2/3 | 2/9 |
| EGDSLRYYYAN | CKNNRPS | SSRCSSGFQVF | 4.31 | 1/3 | 5/9 |
| EGDSLRYYYAN | AKQNRPS | SSRDSSGFQVF | 4.00 | 2/3 | 0/9 |
| EGDSLYYYYAN | DKNNRPS | SSRTSSGFQVF | 2.35 | 3/3 | 5/9 |
| EGDWLRYYYAN | DKNNRPS | SSRDSSGFQVG | 1.96 | 1/3 | 1/9 |
| EHDSVRYYYAN | WKNNRPS | SSRDSSGFQVF | 4.98 | 1/3 | 3/9 |
| EGESLRYYYAN | EKNHRPS | SSRDSSGFQVF | 3.38 | 3/3 | 7/9 |
| EGDSTRYYYAN | PKNNIPS | SSRDSSGFQVF | 3.06 | 1/3 | 2/9 |
| EGDSLRYWQAN | DKNNRPS | SSRDSSGFQVF | 2.01 | 3/3 | 2/9 |
| EGDSLRYYYAN | TKNNRPS | SLRDSSGFCVF | 3.45 | 1/3 | 2/9 |
| KGDSLRYYYAN | QKNNRPS | QSRDSSGFQVF | 3.42 | 3/3 | 1/9 |
| EVDSLDYYYAN | NKNNRPS | SSRDSSGFQVF | 2.97 | 2/3 | 1/9 |
| EGKSLRYYYAN | VKNNRPS | SSRDSSGFQYF | 3.94 | 2/3 | 2/9 |
| EGDSLRYYYAN | FQNNRPG | SSRDSSGFQVF | 3.77 | 2/3 | 3/9 |
| DGDSLRYYYAN | NKNNRPS | SSRASSGFQVF | 3.91 | 3/3 | 5/9 |
| RGDSLRYYYAN | AKNERPS | SSRDSSGFQVF | 2.41 | 3/3 | 1/9 |
| EGDSLRYYYAN | MKNNRPS | SKRRSSGFQVF | no signal | 0/3 | 0/9 |
| EGDSLRYYYAN | EKNNRPS | MSRPSSGFQVF | 3.63 | 3/3 | 3/9 |
| EGDFLRYYYAN | MKNPRPS | SSRDSSGFQVF | 4.28 | 1/3 | 5/9 |
| EGDSLRYYYIN | PKNVRPS | SSRDSSGFQVF | 4.27 | 2/3 | 2/9 |
| EGDSLRYYYAN | WKNNRPS | SSRDSSMFQHF | 3.48 | 1/3 | 0/9 |
| EGDSLRYYYAN | SKNNAPS | SSRDSSLFQVF | 4.38 | 2/3 | 0/9 |
| EGDSLFYYYAN | YKNERPS | SSRDSSGFQVF | no signal | 0/3 | 3/9 |
| EGDSLRYYYAN | FKNNRPE | SDRDSSGFQVF | 2.83 | 1/3 | 4/9 |
| EGDSLRYYYAQ | TKNNRPS | SSRDSSGFQVH | 4.07 | 2/3 | 2/9 |
| EGDSLWYMYAN | KKNNRPS | SSRDSSGFQVF | no signal | 0/3 | 1/9 |
| ELDSLRYYYAN | FKNNRFS | SSRDSSGFQVF | 4.33 | 2/3 | 6/9 |
| EGDSLRYYDAN | IKNNRPS | SSRDSSGFQVL | no signal | 0/3 | 2/9 |
| IGDSLRYYYAN | FKNNRPS | SSRDSSGIQVF | 4.39 | 2/3 | 3/9 |
| EGDSLRYYYAY | SKNNRPS | SSRDYSGFQVF | no signal | 0/3 | 1/9 |
| EGDSLRDYYAN | IKNNRPS | SSRDSSHFQVF | 4.41 | 1/3 | 2/9 |
| EGDSLRYYYAP | RKANRPS | SSRDSSGFQVF | 3.40 | 2/3 | 2/9 |
| EGDSLRYYYDN | PKLNRPS | SSRDSSGFQVF | no signal | 0/3 | 4/9 |
| EGDSLRYYYPN | RKNNRPS | SSRDSSGFQCF | 3.81 | 2/3 | 1/9 |
| EGDSLRYRYAN | HKNNRPS | SSRDSSGFQCF | 2.91 | 2/3 | 2/9 |
| EGPSLRYYVAN | WKNNRPS | SSRDSSGFQVF | 4.55 | 2/3 | 4/9 |
| EGDWLRMYYAN | FKNNRPS | SSRDSSGFQVF | 4.07 | 3/3 | 3/9 |
| ESDSLRYYYAN | EWNNRPS | SSRDSSGFQVF | 3.35 | 1/3 | 3/9 |
| EGDSLRYYYFN | SKNNRPS | SYRDSSGFQVF | no signal | 0/3 | 4/9 |
| EGDSCRYYYAN | NKNNRPS | SSRESSGFQVF | 4.96 | 1/3 | 2/9 |
| EYDSLRYYYAN | VKNNRPS | SSRDVSGFQVF | 4.38 | 1/3 | 1/9 |
| EGDSLRMYMAN | IKNNRPS | SSRDSSGFQVF | 3.02 | 1/3 | 3/9 |
| EGDSLRYEYAN | IKNNRPS | SSRTSSGFQVF | 3.53 | 1/3 | 2/9 |
| EGDSLRYYYAN | EKNNRPS | SWRDSSGFMVF | 4.62 | 3/3 | 3/9 |
| EGDSLRYYYAN | MKNNQPS | SSRDSSGFQVF | 3.51 | 1/3 | 1/9 |

The 8 strongest on average among those seen in every replicate, once more:

| CDR-L1 | CDR-L2 | CDR-L3 | mean, log10 nM | replicates with signal | empty controls |
|---|---|---|---|---|---|
| EGDSLRYGYAN | QKNNRPS | SSRDSSGFQLF | 1.20 | 3/3 | 4/9 |
| EGDSLRYWQAN | DKNNRPS | SSRDSSGFQVF | 2.01 | 3/3 | 2/9 |
| EGDSLYYYYAN | DKNNRPS | SSRTSSGFQVF | 2.35 | 3/3 | 5/9 |
| RGDSLRYYYAN | AKNERPS | SSRDSSGFQVF | 2.41 | 3/3 | 1/9 |
| EGDSLRYYYAN | DKNNRPK | SSRDSSFFQVF | 3.22 | 3/3 | 0/9 |
| EGESLRYYYAN | EKNHRPS | SSRDSSGFQVF | 3.38 | 3/3 | 7/9 |
| KGDSLRYYYAN | QKNNRPS | QSRDSSGFQVF | 3.42 | 3/3 | 1/9 |
| EGDSLRYYYAN | EKNNRPS | MSRPSSGFQVF | 3.63 | 3/3 | 3/9 |